OPERA 2.9 data: intrinsic clearance values

From the experimental data distributed with OPERA 2.9.

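The OPERA project collected these measurements from public sources as training and test data for property models. The files give a single number for a compound and property, which may rest on several reports. Method and conditions are not stated for these values. Where a salt, mixture or single isomer is drawn, the source does not say that exactly this form was tested. Unmarked limits or estimates from the upstream databases cannot be ruled out.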

Intrinsic clearance (human, µL/min per 10^6 hepatocytes): higher is faster turnover, and 0 stands for none detected.

SMILES	hepatic Clint (µL/min/10^6 cells)
COCC(=O)N(c1c(C)cccc1C)C(C)C(=O)OC (stereo not given)	1.58
CN(C)NC(=O)CCC(=O)O	2.29
Cc1cc(Cl)ccc1OCC(=O)O	0
C=CC1(C)OC(=O)N(c2cc(Cl)cc(Cl)c2)C1=O (stereo not given)	18.34
O=C(O)C(F)(F)C(F)(F)C(F)(F)C(F)(F)C(F)(F)C(F)(F)C(F)(F)C(F)(F)F	0
CC(Cl)CCl (stereo not given)	11.33
C[C@]12C=CC3=C4CCC(=O)C=C4CC[C@H]3[C@@H]1CC[C@@H]2O	37.4
CCCCCCCCc1ccc(O)cc1	15.65
CC(C)N(C(=O)COc1nnc(C(F)(F)F)s1)c1ccc(F)cc1	29
Oc1ccc(C(c2ccc(O)cc2)(C(F)(F)F)C(F)(F)F)cc1	125
O=C(Nc1ccccc1)Nc1cnns1	4.92
C1CC2OC2CC1C1CO1 (stereo not given)	136
Cc1cccc(N)c1	32.9
c1ccc(N=Nc2ccccc2)cc1	73.7
CCCCOC(=O)c1ccccc1C(=O)OCCCC	42.5
C=CCC1=C(C)C(OC(=O)C2C(C=C(C)C)C2(C)C)CC1=O (mixture of isomers)	10.9
CN(C)C(=O)Nc1cccc(C(F)(F)F)c1	10.06
Clc1nc(Cl)c(Cl)c(Cl)c1Cl	362
O.[Br-].[Br-].c1cc[n+]2c(c1)-c1cccc[n+]1CC2	0
CCCSP(=O)(OCC)Oc1ccc(Br)cc1Cl (stereo not given)	141
C/C(=CC(=O)OC(C)C)/OP(=S)(NCC)OC (stereo partly drawn)	16.24
Cc1[nH]c(=O)n(C(C)(C)C)c(=O)c1Cl	2.27
Cc1ccc(-c2nc3ccc(C)cn3c2CC(=O)N(C)C)cc1	3.271
CCCN(CC)CC1COC2(CCC(C(C)(C)C)CC2)O1 (stereo not given)	3.35
O=C(O)C(F)(F)C(F)(F)C(F)(F)C(F)(F)C(F)(F)C(F)(F)F	0
COP(=S)(OC)SCN1C(=O)c2ccccc2C1=O	23.82
C[C@]12CCC(=O)C=C1CC[C@@H]1[C@@H]2CC[C@@]2(C)[C@H]1CC[C@]2(C)O	12.7
O=C(NC(=O)c1c(F)cccc1F)Nc1ccc(Cl)cc1	0
FCC(F)(F)F	0.02
COc1cc(OC)nc(NC(=O)NS(=O)(=O)c2cc(NC=O)ccc2C(=O)N(C)C)n1	0
CCC(=O)O[C@](Cc1ccccc1)(c1ccccc1)[C@H](C)CN(C)C	11
O=C(O)c1cc(Oc2ccc(C(F)(F)F)cc2Cl)ccc1[N+](=O)[O-]	0
Nc1ccc(Cl)cc1N	31.6
O=c1ccc(=O)[nH][nH]1	0
CCC(CC)Nc1c([N+](=O)[O-])cc(C)c(C)c1[N+](=O)[O-]	7.21
Nc1c(Cl)c(Cl)nc(C(=O)O)c1Cl	0
CCOP(=S)(OCC)OC(Cl)C(Cl)(Cl)Cl (stereo not given)	617
Clc1cc(Cl)c(-c2c(Cl)cc(Cl)cc2Cl)c(Cl)c1	0
CC(COc1ccc(Oc2ccccc2)cc1)Oc1ccccn1 (stereo not given)	16.86
Clc1ccc(Cl)c(-c2c(Cl)ccc(Cl)c2Cl)c1Cl	0
C1=CCCC=CCCC=CCC1	17.28
O=C1c2ccccc2C(=O)C1C(=O)C(c1ccccc1)c1ccc(Cl)cc1 (stereo not given)	0
CCOP(=S)(OCC)SCSC(C)(C)C	32.5
COC(=O)c1ccccc1C(=O)OC	22.26
CC(C)(C)C(=O)C(Oc1ccc(Cl)cc1)n1cncn1 (stereo not given)	14.59
COc1cccc(C(=O)NN(C(=O)c2cc(C)cc(C)c2)C(C)(C)C)c1C	16.2
CCOP(=O)(OCC)Oc1cc(C)nc(C(C)C)n1	34.62

Extract of 8 entries:

SMILES	hepatic Clint (µL/min/10^6 cells)
C1=CCCC=CCCC=CCC1	17.28
c1ccc(N=Nc2ccccc2)cc1	73.7
Clc1cc(Cl)c(-c2c(Cl)cc(Cl)cc2Cl)c(Cl)c1	0
Cc1cccc(N)c1	32.9
Nc1c(Cl)c(Cl)nc(C(=O)O)c1Cl	0
CCCCCCCCc1ccc(O)cc1	15.65
CCOP(=O)(OCC)Oc1cc(C)nc(C(C)C)n1	34.62
COCC(=O)N(c1c(C)cccc1C)C(C)C(=O)OC (stereo not given)	1.58